Entries after “also recorded” stand apart in the source; their conditions may differ.
Assay: Tissue distribution of fluorescent-tagged drug after MCA stroke (MCE model)
Format: in vivo, rat
Conditions: 6 hr after stroke

In the case of “BODIPY-FL-glyburide [BODIPY-glibenclamide]”, the “Fluorescent labeling of cells, microvessels and capillaries in peri-infarct / ischemic regions” value is reported as “clearly labeled; also recorded: fluorescent labeling was evident”.
